Target: T1, 5-HT3 receptors expressed in guinea pig ileum (Cavia porcellus, UniProt O70212)
T1 construct: A segment (15 cm) of male guinea pig ileum was excised from the small intestine; from tissue; host or cells: isolated male guinea pig ileum segments in an organ bath
Assay: guinea pig ileum contractions induced by serotonin
Type: biochemical

Chains of the proteins cited; added tags and fusions are not shown. Residues count along the entry.
UniProt O70212, 20-490: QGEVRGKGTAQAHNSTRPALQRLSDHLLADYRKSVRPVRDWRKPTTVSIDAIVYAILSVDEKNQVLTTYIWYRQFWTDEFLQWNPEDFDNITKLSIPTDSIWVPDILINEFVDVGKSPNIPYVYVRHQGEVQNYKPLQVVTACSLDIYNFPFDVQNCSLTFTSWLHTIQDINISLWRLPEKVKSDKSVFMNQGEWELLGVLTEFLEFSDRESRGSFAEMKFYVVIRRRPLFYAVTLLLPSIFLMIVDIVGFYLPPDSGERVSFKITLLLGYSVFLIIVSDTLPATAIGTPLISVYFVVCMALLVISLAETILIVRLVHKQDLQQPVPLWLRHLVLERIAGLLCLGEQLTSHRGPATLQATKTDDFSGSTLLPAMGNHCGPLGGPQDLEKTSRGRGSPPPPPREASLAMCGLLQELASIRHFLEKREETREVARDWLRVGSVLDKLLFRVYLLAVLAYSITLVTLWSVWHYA

Compound `NCCc1c[nH]c2ccc(O)cc12` [Serotonin, reference compound] has an EC50 of 1.12 µM.
